This is a sample that favours compounds with a hit; in the whole collection about 3.7% have one here.
Nrf2 activator = Nrf2 pathway activation | AREc32 ARE-luciferase reporter (MCF7-derived line), luminescence, 24 h | AID 624171 | hit rate 0.31% among 410,000 | Potency, µM (top dose mostly 46.1 µM), inactives show at the highest dose activation, hits mostly activators; further: potency means the concentration at half of the fitted maximal effect; % of control where 0% means no effect; nearly all actives have a fitted effect of over 65% in size
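ARE-driven firefly luciferase activity in AREc32 cells measured after a 24 hr compound exposure at 37 deg C, using Steady-Glo reagent and a 30 min room-temperature hold.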
ClpP mod = qHTS Assay for Activators of ClpP; purified B. subtilis ClpP, FRET peptide cleavage, 20 min; AID 651965, 2013; hit rate 1.9% among 340,000; Potency, µM (titrated, usually from 57.5 µM), without a hit: top-dose activity change, negative = active; active means well fitted falling curve with a large enough effect; inconclusive means small, poorly fitted or top-dose-only effect; inactive means no such curve, though single readings can be large or run the other way; further: potency means the concentration at half of the fitted maximal effect; the source files actives as falling curves though it sought activators and does not explain the sign; nearly all actives have a fitted effect of over 65% in size
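Purified B. subtilis ClpP, 10 microg/mL final in Tris/HCl pH8 with KCl, BSA, glycerol and Tween-20, cleaved an Abz/nitrotyrosine-quenched decapeptide. Fluorescence (ex 320, em 430) was read at 0 and 20 min at room temperature. Delta was normalized to 5.8 microM ADEP and DMSO/no-enzyme controls.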
A549 tox-1 = A549 cytotoxicity, counter-screen for Nrf2 inhibitors; Potency, µM (titrated, usually from 46 µM), for the others: at the top dose activity change, negative = cytotoxicity, usual class: inhibitors; A549 ARE-Fluc cells, CellTiter-Fluor viability, 18-24 h; hit rate 0.16% among 390,000; AID 504648; further: potency means the concentration at half of the fitted maximal effect; on the % scale 0 is the no-effect control and ±100 the full control effect
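A549 ARE_Fluc cells in 5% FBS OPTI-MEM were exposed to compounds in concentration-response for 18-24 h at 37 deg C. Viability was read by CellTiter-Fluor fluorescence (Ex 405/Em 525) after 30 min, before the luciferase read.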
IL2 activator = activators of IL-2; IL-2 activation reporter assay, cell-based qHTS; stimulated with anti-CD3/CD4/CD28 beads; in transgenic mouse T cells; activation, % (series mostly up to about 46 µM); hit rate 0.065% among 360,000; AID 652025; in the data active means activation above about 50%; inconclusive means mostly about 30% to 49%; further: 0% is about no effect
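Screening format: compound pinned onto unstimulated transgenic mouse T cells, 60 min incubation, then anti-CD3/anti-CD4/anti-CD28 bead stimulation for 18 hours at 37 degrees C, followed by EGFP and DsRed detection.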
miR-21 reporter = miR-21 reporter, rising signal | HeLa miR-21 FLuc reporter, luciferase, 48 h | Potency, µM (highest dose often 38.3 µM), for inactives: at the top dose reporter change, positive = more light | 340,000 tested, under 10 active | AID 2288; active = well fitted rising curve with a large enough effect; inconclusive = small, poorly fitted or top-dose-only effect; inactive = no such curve, though single readings can be large or run the other way;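 further: % of control where 0% means no effect; miR-21 action dims this reporter so a rising signal means less miR-21 action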
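HeLa cells stably expressing CMV-driven firefly luciferase with a downstream miR-21 binding sequence, endogenously expressing miR-21, were treated with titrations (up to about 40uM final) for 48 hours at 37 degree Celsius. Luciferase luminescence was read after lysis.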
Nrf2 block = inhibitors of Nrf2 signaling | Potency, µM (series often up to 46 µM), without a hit: at the highest dose activity change, negative = inhibition, most hits filed as inhibitors | hit rate 2.1% among 360,000 | A549 ARE-Fluc reporter, luciferase luminescence, 18-24 h; further: potency means the concentration at half of the fitted maximal effect; on the % scale 0 is the no-effect control and ±100 the full control effect; nearly all actives have a fitted effect of over 60% in size
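Concentration-response testing used A549 ARE_Fluc cells at 5000 cells/well. Following an 18-24 h compound incubation, viability was read by fluorescence (Ex 405/Em 525) and luciferase output by luminescence.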
FLuc counter 3 = blocks purified firefly luciferase in Nrf2 counterscreen | hit rate 4% among 1,400 | purified firefly luciferase, luminescence inhibition | Potency, µM (top dose mostly 57.5 µM), for the others: at the highest dose activity change, negative = inhibition, hits mostly inhibitors | shares compounds with Nrf2 block; further: potency means the concentration at half of the fitted maximal effect; on the % scale 0 is the no-effect control and ±100 the full control effect; nearly all actives have a fitted effect of over 65% in size
A549 tox-2 = A549 cytotoxicity, Nrf2 inhibitor counterscreen; shares compounds with Nrf2 block; A549 ARE-Fluc cells, cytotoxicity counterscreen; Potency, µM (titrated, usually from 46.1 µM), for the others: at the highest dose activity change, negative = cytotoxicity, actives largely listed as inhibitors; hit rate 2% among 1,400; AID 720523;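 further: potency means the concentration at half of the fitted maximal effect; cells exposed to compounds for 18 to 24 hours; on the % scale 0 is the no-effect control and ±100 the full control effect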
Nrf2 ARE inh = confirmation of Nrf2 inhibitors in A549 ARE reporter cells. shares compounds with Nrf2 block. A549 ARE-firefly luciferase reporter, luminescence. Potency, µM (titrated, usually from 46.1 µM), inactives show at the top dose activity change, negative = inhibition, usual class: inhibitors. hit rate 74% among 1,400. AID 720524; further: potency means the concentration at half of the fitted maximal effect; on the % scale 0 is the no-effect control and ±100 the full control effect; nearly all actives have a fitted effect of over 65% in size
The depositor's hits bear a star; ? = inconclusive; · = no result given. Unless noted, the call rests on the fitted dose curve; in most records, active means well fitted curve in the direction sought with a large enough effect; inconclusive means small, poorly fitted or top-dose-only effect, or another doubt; inactive means no such curve, though single readings can be large; an effect the other way counts as inactive or inconclusive.

1) Cc1oc2ncn(C)c(=O)c2c1C(=O)NCCCN1CCCC(C)C1 (stereo unspecified)
2) Cc1cccc(/C=C/c2cccs2)n1
3) Cc1ccsc1/C=C/c1ccc2cccc(O)c2n1
4) Cc1cc(Cl)c(S(=O)(=O)N2CCCC2)cc1OCC(=O)NC1CCCCC1
5) CC(/C=N/NC(=O)CSc1nc(C)cc(C)n1)=C\c1ccccc1
6) CC(/C=N\NC(=O)Cn1c(C)nc2ccccc21)=C\c1ccccc1

Screen / compound no.,1,2,3,4,5,6
Nrf2 block,?,·,3%,7.3µM*,-28%,8.2µM*
FLuc counter 3,·,-1%,·,0%,·,-2%
A549 tox-2,·,-26%,·,-18%,·,-18%
A549 tox-1,11%,·,?,·,1%,-19%
miR-21 reporter,0%,·,-41%,26%,-2%,9%
Nrf2 ARE inh,·,2.6µM*,·,·,·,7.3µM*
IL2 activator,·,·,-4,-2,-1,0
Nrf2 activator,0%,·,?,-1%,1%,13%
ClpP mod,-2%,-2%,-3%,1%,1%,?

7) CCN(CC)c1ncnc2c1cnn2-c1cc(Cl)ccc1C
8) CCOC(=O)c1c(NC(=O)Cn2c(C)nc3ccccc32)sc2c1CCC2
9) CN(C)S(=O)(=O)c1cccc(NC(=O)CNc2cccc(S(=O)(=O)N3CCCCC3)c2)c1
10) Cc1ccc(S(=O)(=O)c2cccc(S(=O)(=O)N3CCOCC3)c2)cc1S(=O)(=O)N1CCOCC1
11) CCN(CC)S(=O)(=O)c1cccc(NC(=O)CNc2cccc(S(=O)(=O)N3CCOCC3)c2)c1
12) CCN(CC)S(=O)(=O)c1cc(NC(=O)CNc2cccc(S(=O)(=O)N3CCCC3)c2)ccc1C

Screen / compound no.,7,8,9,10,11,12
Nrf2 block,·,5.8µM*,·,15%,1.3µM*,5.2µM*
FLuc counter 3,·,1%,·,·,2%,0%
A549 tox-2,·,-10%,·,·,-17%,-22%
A549 tox-1,2%,-4%,·,-10%,?,-19%
miR-21 reporter,0%,-3%,·,-5%,·,·
Nrf2 ARE inh,·,?,·,·,2.1µM*,8.2µM*
IL2 activator,·,-1,-2,-2,0,-1
Nrf2 activator,6%,0%,0%,0%,2%,3%
ClpP mod,-1%,10%,-3%,0%,1%,-5%

13) CCN(CC)S(=O)(=O)c1cc(NC(=O)Cc2ccc(S(=O)(=O)N3CCOCC3)s2)ccc1Cl
14) Cc1ccc(S(=O)(=O)c2cccc(S(=O)(=O)N3CCCC3)c2)cc1S(=O)(=O)N1CCCC1
15) Cc1coc2cc3oc(=O)c(CCC(=O)NCc4ccccc4Cl)c(C)c3cc12
16) CC(CC(=O)Nc1ccc(Cl)c(S(=O)(=O)N2CCOCC2)c1)c1ccccc1 (stereo unspecified)
17) Cc1ccc(S(=O)(=O)Nc2ccc(Cl)cc2C(=O)c2ccc(F)cc2)cc1
18) Cc1ccc(S(=O)(=O)Nc2ccc(Cl)cc2C(=O)c2ccccc2)cc1

Screen / compound no.,13,14,15,16,17,18
Nrf2 block,1.3µM*,8.2µM*,8%,7.3µM*,?,5.8µM*
FLuc counter 3,-12%,0%,·,-1%,·,2%
A549 tox-2,-24%,-11%,·,-4%,·,10%
A549 tox-1,?,-26%,8%,-19%,-5%,-24%
miR-21 reporter,·,18%,5%,·,8%,1%
Nrf2 ARE inh,6.5µM*,21µM*,·,3.3µM*,·,-2%
IL2 activator,-1,-4,·,-1,0,-1
Nrf2 activator,0%,0%,0%,2%,0%,3%
ClpP mod,2%,-1%,-21%,-5%,-5%,-3%

19) COc1ccc(-c2c(C#N)c(SCC(=O)c3cc4ccccc4oc3=O)nc(C)c2C(=O)Nc2ccccc2)cc1
20) Cc1cccc(C(=O)Nc2nc(-c3nnn(-c4cc(C)ccc4C)c3C)ns2)c1
21) CC(C)(C)n1ncc2c(=O)n(Cc3ccc(-c4ccccc4C#N)cc3)cnc21
22) CCOc1ccc2c(c1)c(=O)c(C(=O)c1ccc3c(c1)OCO3)cn2Cc1ccc(F)cc1
23) CCC(NC(=O)c1cc(COc2ccc(C)nc2)on1)c1ccc(C)cc1 (stereo unspecified)
24) CCC(NC(=O)c1cc(COc2cc(C)c(Cl)c(C)c2)on1)c1ccncc1 (stereo unspecified)

Screen / compound no.,19,20,21,22,23,24
Nrf2 block,6.5µM*,9.2µM*,·,12%,8.2µM*,8%
FLuc counter 3,-19%,-15%,-11%,·,0%,·
A549 tox-2,-18%,-14%,-9%,·,5%,·
A549 tox-1,-13%,-14%,·,-5%,-22%,-2%
miR-21 reporter,-4%,?,·,0%,2%,18%
Nrf2 ARE inh,15µM*,7.3µM*,9.2µM*,·,?,·
IL2 activator,2,·,·,·,-4,-1
Nrf2 activator,0%,0%,·,0%,0%,7%
ClpP mod,12%,-10%,·,-1%,1%,0%

A second format for 4 compounds above:
| entry | mol | Nrf2 block | FLuc counter 3 | A549 tox-2 | A549 tox-1 | miR-21 reporter | Nrf2 ARE inh | IL2 activator | Nrf2 activator | ClpP mod |
| --- | --- | --- | --- | --- | --- | --- | --- | --- | --- | --- |
| 4 | Cc1cc(Cl)c(S(=O)(=O)N2CCCC2)cc1OCC(=O)NC1CCCCC1 | 7.3µM* | 0% | -18% | · | 26% | · | -2 | -1% | 1% |
| 5 | CC(/C=N/NC(=O)CSc1nc(C)cc(C)n1)=C\c1ccccc1 | -28% | · | · | 1% | -2% | · | -1 | 1% | 1% |
| 6 | CC(/C=N\NC(=O)Cn1c(C)nc2ccccc21)=C\c1ccccc1 | 8.2µM* | -2% | -18% | -19% | 9% | 7.3µM* | 0 | 13% | ? |
| 7 | CCN(CC)c1ncnc2c1cnn2-c1cc(Cl)ccc1C | · | · | · | 2% | 0% | · | · | 6% | -1% |

Later entries:
25) O=c1[nH]c(=O)n(Cc2ccco2)c2c1C(C(F)(F)F)(C(F)(F)F)N=C(c1ccc(F)cc1)N2
26) COc1ccccc1C(=O)NCCCNC(=O)c1cccnc1
27) Cc1ccccc1NC(=O)c1c(C)oc2ccc(O)c(CN3CCC(C)CC3)c12
28) COc1ccc(CCNC(=O)/C=C\c2ccccc2)cc1OC
29) COc1ccc(/C=C/C(=O)NC(=S)NCCc2ccc(OC)c(OC)c2)cc1
30) CC/C(=N/NC(=O)c1ccc2c(c1)OCO2)c1ccccc1O
31) COc1ccc(C(=O)N/N=C(\c2ccccc2)c2ccccn2)cc1
32) COc1ccc(C(=O)Nc2ccc(NC(=O)c3ccccn3)cn2)cc1
33) O=C(NN=C(c1ccccc1)c1ccccn1)c1ccccc1

Screen / compound no.,25,26,27,28,29,30,31,32,33
Nrf2 block,4.1µM*,1.8µM*,6%,-16%,7.3µM*,5.2µM*,8.2µM*,-7%,5.2µM*
FLuc counter 3,3%,-1%,·,·,-4%,11µM*,2%,·,-25%
A549 tox-2,-23%,12%,·,·,-13%,-9%,0%,·,6.5µM*
A549 tox-1,-29%,4%,-2%,-3%,?,-22%,?,-1%,?
miR-21 reporter,?,10%,14%,-27%,-3%,·,3%,-23%,·
Nrf2 ARE inh,2.9µM*,-11%,·,·,5%,-16%,?,·,·
IL2 activator,-4,1,·,0,0,0,0,-2,-1
Nrf2 activator,0%,0%,8%,-1%,-1%,0%,18%,1%,?
ClpP mod,?,·,1%,-3%,-1%,24%,2%,1%,1%

Source: PubChem
